Measurements as given in US9956304B2, “Contrast agents, methods for preparing contrast agents, and methods of imaging” (GEORGIA STATE UNIVERSITY RESEARCH FOUNDATION, INC., priority 2012, dated 2018).

Sequences of proteins named here, by UniProt entry; tags and fusion partners are left off. A change or cut given only in a name is not applied to a line headed by its entry.
UniProt P30550: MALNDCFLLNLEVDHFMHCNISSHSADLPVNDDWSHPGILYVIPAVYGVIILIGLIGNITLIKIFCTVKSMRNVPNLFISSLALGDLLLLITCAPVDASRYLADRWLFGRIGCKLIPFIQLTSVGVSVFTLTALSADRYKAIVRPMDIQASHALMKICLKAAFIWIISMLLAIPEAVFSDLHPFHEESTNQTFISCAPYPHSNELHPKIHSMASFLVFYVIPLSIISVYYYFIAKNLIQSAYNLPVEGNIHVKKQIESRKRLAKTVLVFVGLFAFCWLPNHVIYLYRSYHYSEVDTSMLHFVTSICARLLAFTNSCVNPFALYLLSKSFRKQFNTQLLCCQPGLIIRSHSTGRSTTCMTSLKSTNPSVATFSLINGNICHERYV

Target: T1, GRPR (Homo sapiens, UniProt P30550)
T1 construct: H441 has a low expression level of GRPR while PC3 has high expression level of GRPR; endogenous in cells; host or cells: PC3 and H441 cells (cultured, as lysate, or as xenograft tumours in mice)
Assay: MRI, NIR and staining of H441 and PC3 xenografts
Type: in vivo, athymic mice
Description: H441 and PC3 cancer cell lines which express different levels of GRPR were injected in left and right flank of athymic mice which grew up as tumor (1 cm) xenograft models. The contrast agent ProCA1B14 (5 μM, 50 μl) was injected into the mice by tail vein injection. MR images were recorded at different time points (pre-scan and 10 min, 30 min, 24 h, and 48 h after injection) to trace the change of contrast enhancement in tumor regions. The contrast enhancement of H441 tumor increased gradually and reached the highest level at the time point 24 h post injection. Then, the signal intensity of H441 began to decrease. While, the contrast enhancement of PC3 tumor increased gradually and reached the highest level at the time point 48 h post injection. There is an interesting phenomenon that the signal intensity of PC3 was lower than that of H441 before 24 h, however, the condition reversed after 24 h. The possible reason is that more and more free ProCA1B14 went through the whole body of mice and targeted to GRPR on PC3 tumor surface because PC3 has higher GRPR expression level than that of H441.
Consistent with MR imaging, we observed a strong NIR light emission from the PC3 tumor and H441 tumor at 48 h post injection of ProCA1B14. […] To probe the distribution of ProCA1B14 in the tumor tissues after MRI scan, we did immunofluorescence staining. The mice with xenografted tumors were sacrificed and representative organs were immersed in flek O.C.T and fixed by liquid nitrogen. All the samples were stored at −80° C. The cryosectioning was performed by cryostas (Biology facility, GSU). The anti-ProCA1 primary antibody reacted with ProCAB14, which binds GRPR and accumulated in the tissues. The goat anti rabbit secondary antibody conjugated with fluo 594 was added to react with the primary antibody. The immunofluorescence intensity signal was coming from the recognition of secondary antibody conjugated with fluorescence dye to anti-ProCA1 primary antibody. Compare the fluorescence intensity, ProCA1B14 binds GRPR on PC3 and H441 tumors and some of them were internalized in the cell.
To detect the location of ProCA1B14 in the examined tumor tissues, we did immunohistochemistry staining. The mice with xenografted tumors were sacrificed and representative organs were immersed in flek O.C.T and fixed by liquid nitrogen. All the samples were stored at −80° C. The cryosectioning was performed by cryostas (Biology facility, GSU). The frozen tissue samples were stained by using the IHC protocol mentioned above. As shown in the FIG. 17, the brown color indicates the staining of ProCA1B14 binding to the GRPR on tumors, while the blue color indicates the hematoxylin background staining. […] The IHC results were consistent with our MRI data and confirmed that our ProCA1B14 can be used as a MRI contrast agent to semi-quantitatively analyze the receptor change in tumors.

B1: ProCA1B14: ProCA1 (CD2) with internally grafted bombesin variant B14 targeting GRPR (protein)
chain: RDSGTVWGALGHGIELNIPNFQMTDDIDEVRWERGSTLVAEFKRKMKPFLKSGGSGGEQRLGNQWAVGHLMGGSGGAFEIDANGDLDIKNLTRDDSGTYNVTVYSTNGTRILNKALDLRILE
modifications: ProCA1 sequence 3
NIR intensities of tumors (48 h post injection): NIR intensities at H441 tumor site were much less than that of the PC3 tumor
immunofluorescence staining of tumor tissues (mouse, in vivo): PC3 tumor showed stronger staining than that of H441 tumor
immunohistochemistry staining of tumor tissues (mouse, in vivo): PC3 tumor showed stronger brown color than that of H441 tumor
time of highest contrast enhancement, H441 tumor (post injection): 24 h
time of highest contrast enhancement, PC3 tumor (post injection): 48 h
